Experimental data as given in US9603854B2, “Indolizine compounds, a process for their preparation and pharmaceutical compositions containing them” (LES LABORATOIRES SERVIER, priority 2012, dated 2017).
Counter-ions that a name gives are not always drawn.

Sequences of proteins named here, by UniProt entry; tags and fusion partners are left off.
UniProt P10415, whole entry: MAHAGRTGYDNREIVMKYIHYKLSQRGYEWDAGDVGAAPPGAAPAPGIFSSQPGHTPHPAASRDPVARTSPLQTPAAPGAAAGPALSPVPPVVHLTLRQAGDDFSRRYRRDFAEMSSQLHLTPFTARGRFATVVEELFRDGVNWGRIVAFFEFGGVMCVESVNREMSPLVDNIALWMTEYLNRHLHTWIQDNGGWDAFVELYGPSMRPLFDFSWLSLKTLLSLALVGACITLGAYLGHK

Target: Bcl-2 protein (Homo sapiens (Human), UniProt P10415)
Test: Inhibition of Bcl-2 by the fluorescence polarisation technique
Assay type: binding
Settings: Bcl-2 inhibition, fluorescence polarisation test; read-out: IC50 (nM) Bcl-2 FP
Method: The fluorescence polarisation tests were carried out on microplates (384 wells). […] After incubation for 2 hours, the fluorescence polarisation is measured.

IC50: 18 nM
SMILES: Cn1ccc2ccc(N(C(=O)c3cc(-c4cc5c(cc4C(=O)N4Cc6ccccc6C[C@H]4CN4CCOCC4)OCO5)n4c3CCCCC4)c3ccc(O)cc3)cc21 [Example 84, N-(4-Hydroxyphenyl)-N-(1-methyl-1H-indol-6-yl)-3-{6-[((3S)-3-(4-morpholinylmethyl)-3,4-dihydro-2(1H)-isoquinolinyl)carbonyl]-1,3-benzodioxol-5-yl}-6,7,8,9-tetrahydro-5H-pyrrolo[1,2-a]azepine-1-carboxamide hydrochloride]
